Here are results for 1 molecule from PMC10884005, “Euglena’s atypical respiratory chain adapts to the discoidal cristae and flexible metabolism” (Nature Communications, 2024).

Chains of the proteins cited; added tags and fusions are not shown. Lines headed by an entry give the natural chain unless they say otherwise; changes in a name come on top.
UniProt Q34463: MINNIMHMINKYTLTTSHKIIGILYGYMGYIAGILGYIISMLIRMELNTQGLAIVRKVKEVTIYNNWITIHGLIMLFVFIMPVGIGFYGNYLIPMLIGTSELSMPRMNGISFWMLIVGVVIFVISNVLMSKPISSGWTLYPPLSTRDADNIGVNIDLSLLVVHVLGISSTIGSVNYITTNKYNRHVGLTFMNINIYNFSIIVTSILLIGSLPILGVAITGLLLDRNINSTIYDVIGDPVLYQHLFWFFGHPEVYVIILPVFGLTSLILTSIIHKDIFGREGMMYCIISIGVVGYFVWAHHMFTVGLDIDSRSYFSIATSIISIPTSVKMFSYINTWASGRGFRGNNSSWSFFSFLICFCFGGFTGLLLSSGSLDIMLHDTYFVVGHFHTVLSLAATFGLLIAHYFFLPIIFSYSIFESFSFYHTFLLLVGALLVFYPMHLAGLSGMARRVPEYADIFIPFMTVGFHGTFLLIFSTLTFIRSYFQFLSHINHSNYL

This experiment has as its target Eg-CIV in Eg-SC I + III2 + IV (Euglena gracilis, UniProt Q34463). The experiment is described as follows: Eg-cyt c re-oxidation at […] nm. Particulars: 10 nM Eg-SC I + III2 + IV, 20 μM DQ, 100 μM Eg-cyt c, 250 μM NADH, pH 7.4, room temperature.

Molecules are shown by their SMILES.

Consider `[N-]=[N+]=N`, for which the “inhibition at 100 mM” value was “CIV inhibitor sodium azide specifically inhibited Eg-cyt c re-oxidation”.
